Measured values taken from patent publication US4913891A, “Positron emitter labeled enzyme inhibitors” (The United States of America as represented by the United …, priority 1987, dated 1990).
Like-named read-outs stand apart in the source and are kept apart here.

Sequences of proteins named here, by UniProt entry; tags and fusion partners are left off.
UniProt P21397, whole entry: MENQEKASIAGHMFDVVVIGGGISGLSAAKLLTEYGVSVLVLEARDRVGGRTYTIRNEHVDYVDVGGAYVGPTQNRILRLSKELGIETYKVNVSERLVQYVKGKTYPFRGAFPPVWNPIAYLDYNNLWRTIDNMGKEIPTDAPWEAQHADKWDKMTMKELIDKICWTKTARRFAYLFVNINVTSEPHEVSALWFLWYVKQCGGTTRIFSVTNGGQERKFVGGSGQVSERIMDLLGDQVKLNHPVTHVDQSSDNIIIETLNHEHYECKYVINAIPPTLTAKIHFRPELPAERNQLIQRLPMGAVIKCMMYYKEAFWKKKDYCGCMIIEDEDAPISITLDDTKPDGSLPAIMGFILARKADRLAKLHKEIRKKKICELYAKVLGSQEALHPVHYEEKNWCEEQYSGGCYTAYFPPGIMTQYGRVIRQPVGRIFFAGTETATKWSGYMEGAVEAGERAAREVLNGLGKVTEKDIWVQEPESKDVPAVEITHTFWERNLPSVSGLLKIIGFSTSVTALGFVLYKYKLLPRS

Target: monoamine oxidase A (Homo sapiens, UniProt P21397)
Conditions: study 5, subject receiving phenelzine plus amphetamine for depression

C#CCN([11CH3])CCCOc1ccc(Cl)cc1Cl [[^11 C]clorgyline]
Ki influx rate constant (brainstem): 0.06 milliliters per cubic centimet
Ki influx rate constant (cortex): 0.04 milliliters per cubic centimet
Ki influx rate constant (striatum): 0.07 milliliters per cubic centimet
Ki influx rate constant (thalamus): 0.08 milliliters per cubic centimet
